The target of the assay is T1, human NK3 receptor (Homo sapiens, UniProt P29371).
T1 construct: expressed in transfected cells; membranes prepared from them
In words: NK3 receptor efficacy and potency assay (FLIPR Calcium 4). In kind it is cell-based. Particulars: BHK cells expressing human NK3 receptor, calcium fluorescence. The method, then:
BHK cells stably expressing the human NK3 receptor were seeded in 100 μl media in black walled clear-base 96-wells plates (Costar) aiming at a confluency of 95-100% at the day of assay. The assay was performed according to the FLIPR Calcium 4 Assay kit (Molecular Devices). At the day of the assay, the media was removed and the cells were washed once with the HBSS buffer (Hanks BSS buffer, pH 7.4 containing 20 mM Hepes) before 100 μl of a solution of the calcium assay reagent dissolved in the HBSS buffer containing 2.5 mM probinicid was added to the cells. The plates were incubated for 60 min at 34° C., 10% CO2 before use in the FLIPR for examination of fluorescence.
For efficacy and potency evaluation of compounds, these were diluted in HBSS buffer prior to test. For test of agonist activity, 25 μl of the diluted compound solution was added and the plate was analyzed for 5 minutes in the FLIPR. […] The plates were subsequently analyzed for 5 minutes before the assay was terminated. The maximal increase in fluorescence over background following each ligand addition was determined.

Protein sequences, listed by entry. Tags and fused reporters are not part of them.
UniProt P29371, whole entry: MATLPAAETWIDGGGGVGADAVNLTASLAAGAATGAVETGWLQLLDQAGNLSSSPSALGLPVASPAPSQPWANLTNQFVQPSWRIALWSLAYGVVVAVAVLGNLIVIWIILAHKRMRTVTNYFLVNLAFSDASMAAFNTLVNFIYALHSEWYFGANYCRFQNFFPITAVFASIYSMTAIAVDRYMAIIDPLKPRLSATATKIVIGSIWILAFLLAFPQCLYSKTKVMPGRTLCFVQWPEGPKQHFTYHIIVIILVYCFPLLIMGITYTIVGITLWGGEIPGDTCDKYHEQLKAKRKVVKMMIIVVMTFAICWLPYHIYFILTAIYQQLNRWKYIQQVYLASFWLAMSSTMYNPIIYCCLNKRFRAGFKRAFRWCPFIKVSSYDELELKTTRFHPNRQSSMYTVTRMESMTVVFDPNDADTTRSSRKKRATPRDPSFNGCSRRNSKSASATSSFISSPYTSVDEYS

neurokinin B [NKB]: the “EC85 concentration of NKB” value is listed as about 4 nM.

The values above are taken from US8415356B2, “Isoquinolinone derivatives as NK3 antagonists” (H. Lundbeck A/S, priority 2008, dated 2013).
